Only a part is listed here, and it is no random draw. The source made the active and inactive calls.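 The calls were made as follows: active = inhibition above the mean over all tested compounds plus 3 SD (cut at about 4.2% in these data); inactive = the rest.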

Protein sequences, listed by entry. Tags and fused reporters are not part of them. Lines headed by an entry give the natural chain unless they say otherwise; changes in a name come on top.
UniProt P51843: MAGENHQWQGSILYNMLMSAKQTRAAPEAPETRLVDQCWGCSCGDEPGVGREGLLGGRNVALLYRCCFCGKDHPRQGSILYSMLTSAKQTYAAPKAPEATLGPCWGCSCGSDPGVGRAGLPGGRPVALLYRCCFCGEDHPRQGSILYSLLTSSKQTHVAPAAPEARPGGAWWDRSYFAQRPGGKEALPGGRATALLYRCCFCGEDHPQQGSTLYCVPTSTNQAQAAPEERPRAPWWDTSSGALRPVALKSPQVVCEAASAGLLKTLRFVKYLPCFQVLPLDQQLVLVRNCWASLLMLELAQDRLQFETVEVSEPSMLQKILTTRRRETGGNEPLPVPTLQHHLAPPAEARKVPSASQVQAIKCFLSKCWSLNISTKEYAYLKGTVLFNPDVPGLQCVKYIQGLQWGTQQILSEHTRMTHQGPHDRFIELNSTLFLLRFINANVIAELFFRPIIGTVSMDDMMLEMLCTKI

This assay deals with Nuclear receptor subfamily 0 group B member 1 (Homo sapiens) (UniProt P51843). The experiment in a line: DAX1 (NR0B1) inhibitors, primary screen, cell-based, HEK293, Gal4-DAX1, luciferase luminescence (AID 504766).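 Also: 0% = DAX1-transfected cells with DMSO and 100% = empty-vector control cells with DMSO; inhibition shows as a rise in luminescence from relieved DAX1 repression.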 The conditions noted are these: HEK293 Gal4-DAX1 luciferase reporter, at 6.75 µM, active compounds read high.
For `CCOC(=O)Nc1cccc([As](=O)(O)O)c1`, the inhibition is inactive: -0.02%.
Consider `O=[N+]([O-])c1ccc(Nc2ccc(Oc3ccc([N+](=O)[O-])cc3[N+](=O)[O-])cc2)c([N+](=O)[O-])c1`, for which the inhibition was inactive: 2.26%.
With `Cc1cc(SC(NC=O)C(Cl)(Cl)Cl)ncn1` (stereo not given), the inhibition was inactive: 0.37%.
For `O=P(Nc1ccccn1)(c1cccc2ccccc12)c1cccc2ccccc12`, the inhibition was inactive: 0.53%.
Regarding `CC1CCNP(=O)(N(CCCl)CCCl)O1` (stereo not given), the inhibition is inactive: 1.16%.
With `O=C(O)C(O)c1ccc(N(CCCl)CCCl)cc1` (stereo not given), the inhibition was inactive: 0.32%.
Consider `CCOC(=O)Nc1ccc([As](=O)(O)O)c(O)c1`, for which the inhibition is inactive: 1.54%.
Consider `CCCCOc1ccc(C(=O)NCC2(N3CCCCC3)CCCCC2)cc1OC`, for which the inhibition was inactive: 1.78%.
`Cc1cc(SC(NC(=O)c2ccccc2)C(Cl)(Cl)Cl)nc(C(C)C)n1` (stereo not given): the inhibition was inactive: -0.01%.
In the case of `COP(=O)(OC)N1CC1c1ccccc1` (stereo not given), the inhibition is inactive: -0.27%.
As for `CCOC(=O)c1ccc(NC(=O)C(C)(CCl)SC)cc1` (stereo not given), the inhibition was inactive: 1.82%.
Take `O=C(OC1CN2CCC1CC2)c1cccc([N+](=O)[O-])c1` (stereo not given): the inhibition is inactive: 1.2%.
Consider `CSc1ccc(Nc2c([N+](=O)[O-])cc([N+](=O)[O-])cc2[N+](=O)[O-])cc1`, for which the inhibition is inactive: 0.01%.
On to `CCC(C)N(CC(C)C)C(=S)SC(NC(C)=O)C(Cl)(Cl)Cl` (stereo not given), for which the inhibition is inactive: -0.21%.
With `COP1(=S)c2c(C)nn(CCC#N)c2N=C(c2ccc(F)cc2)N1C` (stereo not given), the inhibition was inactive: -0.21%.
The result for `O=C(COc1ccccc1)OC1CN2CCC1CC2` (stereo not given) reads inactive: -0.51%; that for `O=C(Nc1ccncc1[N+](=O)[O-])c1ccc([N+](=O)[O-])cc1[N+](=O)[O-]`, inactive: -0.62%; that for `O=C(O)C(=O)c1ccc(N(CCCl)CCCl)cc1`, inactive: 0.22%.
For `COc1ccccc1CNC(=O)COC(=O)C(O)(c1ccccc1)c1ccccc1`, the inhibition is inactive: -0.9%.
The value for `CC1(CBr)Cn2c(nc3ccccc3c2=O)S1` (stereo not given) was inactive: 2.17%; that for `CN(C(=O)Cc1ccc(Cl)c(Cl)c1)[C@@H]1CCCC[C@H]1N1CCCC1` was inactive: -0.38%; that for `CC(C)/C=N\N=C(\N)N[N+](=O)[O-]` was inactive: 0.31%.
Turning to `CCOP(=O)(Nc1ccc(C)cn1)OCC`, the inhibition is inactive: -0.09%.
As for `CCC1=CC2Cc3nc4ccc(Cl)cc4c(N)c3C(C1)C2` (stereo not given), the inhibition was inactive: 0.56%.
Regarding `O=P1(Nc2ccccn2)COc2ccccc2OC1`, the inhibition is inactive: -0.3%.
Regarding `CCOP(=O)(NC(=NC(C)c1ccccc1)NC(C)c1ccccc1)OCC` (stereo not given), the inhibition was inactive: 0.26%.
For `Clc1n[nH]nc1-c1nn[nH][15n]1`, the inhibition is inactive: -0.62%.
With `O=P1(N(CCCl)CCCl)NCCC(C(F)(F)F)O1` (stereo not given), the inhibition is inactive: -0.34%.
The result for `CC(C)(C)C(=O)NC(Sc1ncccn1)C(Cl)(Cl)Cl` (stereo not given) reads inactive: 0.92%.
Turning to `O=P1(Nc2ncccn2)COc2ccccc2OC1`, the inhibition was inactive: 2.04%.
The result for `NS(=O)(=O)c1cccc(NC(=O)COC(=O)C(O)(c2ccccc2)c2ccccc2)c1` reads inactive: -0.2%; that for `O=P1(Nc2ccc(Br)cn2)COc2ccccc2OC1`, inactive: 0.38%.
The result for `O=[As](O)(c1cccs1)c1cccs1` reads inactive: 0.47%.
On to `Cc1ccc(OCC(=O)OC2CN3CCC2CC3)cc1` (stereo not given), for which the inhibition is inactive: 0.96%.
As to `Nc1cccc([As](=O)(O)c2ccccc2)c1`, the inhibition is inactive: 0.39%.
The result for `Cc1nn(-c2ccccc2)c2c1P(=O)(N1CCOCC1)N(C)C(c1ccccc1)=N2` (stereo not given) reads inactive: 0.39%; that for `Cc1ccc(C(=O)OC2CN3CCC2CC3)cc1` (stereo not given), inactive: 2.02%; that for `CC1CCC(C(C)C)C(OP(=O)(Nc2ccccn2)c2ccccc2)C1` (stereo not given), inactive: -2.27%.
For the compound `O=C(/C=C/c1ccccc1)OC1CN2CCC1CC2` (stereo not given), the inhibition is active: 7.36%.
For the compound `CCCC1OP(=O)(Nc2ccccc2)OCC1CC` (stereo not given), the inhibition was inactive: 1.04%.
Regarding `CN(C)C1(CNC(=O)c2ccc(S(C)(=O)=O)cc2)CCCCC1`, the inhibition is inactive: -0.92%.
On to `NC(=O)Nc1ccc([As](=O)(O)O)cc1`, for which the inhibition was inactive: 0.49%.
As for `CN(C)C(=O)c1cc([N+](=O)[O-])cc2c1-c1c(cc([N+](=O)[O-])cc1[N+](=O)[O-])C2=O`, the inhibition is inactive: -6.37%.
With `O=[N+]([O-])c1ccc2c(c1)nnn2O`, the inhibition was inactive: -0.47%.
In the case of `CN(C(=O)Cc1ccc(Cl)c(Cl)c1)[C@H]1CC[C@@]2(CCCO2)C[C@@H]1N1CCCC1`, the inhibition was inactive: 0.21%.
On to `N#CCCN(C(=O)COC(=O)C(O)(c1ccccc1)c1ccccc1)c1ccc(F)cc1`, for which the inhibition is inactive: -0.31%.
The value for `CN(C(=O)Cc1ccccc1)[C@@H]1CC[C@]2(CCCO2)C[C@H]1N1CCCC1` was inactive: 0.02%.
Regarding `CCOP1(=S)c2c(C)nn(CCC#N)c2N=C(c2ccc(F)cc2)N1C` (stereo not given), the inhibition was inactive: -0.4%.
Consider `CS(=O)(=O)c1cc([N+](=O)[O-])c2no[n+]([O-])c2c1`, for which the inhibition is inactive: 0.28%.
Regarding `CCOP1(=S)c2c(C)nn(CCC#N)c2N=C(c2ccccc2F)N1C` (stereo not given), the inhibition is inactive: -0.17%.
The value for `O=P(Nc1nccs1)(c1ccccc1)c1nc2ccccc2s1` (stereo not given) was inactive: -2.04%; that for `O=P(Nc1nccs1)(Oc1ccccc1)Oc1ccccc1` was inactive: -0.12%.
With `O=C(O)COc1ccc([As](=O)(O)O)cc1[N+](=O)[O-]`, the inhibition was inactive: 0.92%.
Take `Nc1ccccc1[As](=O)(O)c1ccccc1`: the inhibition is inactive: -1.68%.
For `CCCOP(=S)(Nc1nc(N)cc(=O)[nH]1)OCCC`, the inhibition was inactive: 0.71%.
As for `Nc1cccc2c([As](=O)(O)O)cccc12`, the inhibition is inactive: 0.91%.
As for `Cc1ccc(NCCc2c([N+](=O)[O-])cc([N+](=O)[O-])cc2[N+](=O)[O-])cc1`, the inhibition was inactive: -0.54%.
Consider `COc1cc(C2NCCC3(OCCO3)C2(C)C)cc(OC)c1OC` (stereo not given), for which the inhibition was inactive: 0.08%.
As to `CCOP(=O)(Nc1cccc2ccccc12)OCC`, the inhibition is inactive: -0.98%.
The value for `COc1cc(C(=O)NCC2(N3CCOCC3)CCCCC2)cc(Cl)c1OC(C)C` was inactive: 0.74%; that for `O=[As](O)(O)c1cccnc1` was inactive: 1.7%; that for `CS(=O)(=O)c1ccc(Cl)c(NC(=O)COC(=O)C(O)(c2ccccc2)c2ccccc2)c1` was inactive: -0.54%.
For the compound `O=C(OC1CN2CCC1CC2)c1ccc(Cl)cc1` (stereo not given), the inhibition was inactive: 1%.
On to `O=[As](O)(c1cccc(O)c1)c1cccc(O)c1`, for which the inhibition is inactive: 1.22%.
As to `Cc1cccc(OCC(=O)OC2CN3CCC2CC3)c1` (stereo not given), the inhibition is inactive: -0.55%.

(Values after PubChem BioAssay AID504766 (The Scripps Research Institute Molecular Screening Center, 2011).)
